In assay [1] the target is CNMT (coclaurine N-methyltransferase) (Coptis japonica, UniProt Q948P7, W329A). The format is biochemical. The following applies: AdoMet as methyl donor; stereochemistry of 3 not stated in main text.
For assay [2], the target named is CNMT (coclaurine N-methyltransferase) (Coptis japonica, UniProt Q948P7). In words: X-ray crystal structure. To be noted: active site, flipped relative to 8 a.

Chains of the proteins cited; added tags and fusions are not shown.
UniProt Q948P7, entry or part of it W329A: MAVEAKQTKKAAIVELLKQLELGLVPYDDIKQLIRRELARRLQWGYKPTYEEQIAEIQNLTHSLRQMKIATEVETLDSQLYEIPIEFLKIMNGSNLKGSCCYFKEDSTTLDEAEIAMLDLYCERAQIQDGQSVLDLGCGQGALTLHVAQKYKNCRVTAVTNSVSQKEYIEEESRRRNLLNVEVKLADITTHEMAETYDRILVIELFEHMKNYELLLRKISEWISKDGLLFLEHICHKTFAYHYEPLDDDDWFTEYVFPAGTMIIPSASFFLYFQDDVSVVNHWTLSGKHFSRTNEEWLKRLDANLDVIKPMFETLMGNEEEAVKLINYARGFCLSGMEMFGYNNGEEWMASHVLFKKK
UniProt Q948P7, entry or part of it: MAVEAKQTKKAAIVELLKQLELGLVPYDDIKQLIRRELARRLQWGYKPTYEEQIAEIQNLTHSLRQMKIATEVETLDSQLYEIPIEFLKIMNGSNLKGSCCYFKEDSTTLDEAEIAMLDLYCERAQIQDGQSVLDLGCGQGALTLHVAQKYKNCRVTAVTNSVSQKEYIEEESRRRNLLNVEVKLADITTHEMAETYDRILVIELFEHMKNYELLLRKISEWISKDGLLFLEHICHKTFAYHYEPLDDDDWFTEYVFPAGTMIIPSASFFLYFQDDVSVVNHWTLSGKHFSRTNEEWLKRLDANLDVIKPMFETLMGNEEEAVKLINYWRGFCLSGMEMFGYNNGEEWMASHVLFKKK

As usually defined, the Km is the concentration of substrate that gives half-maximal velocity.

Each structure is given as a SMILES string.

Consider `Oc1ccc(C[C@@H]2NCCc3cc(O)c(O)cc32)cc1` [compound 3, norcoclaurine], for which the Km in assay [1] turned out to be 1.03 ± 0.064 mM. Turning to `COc1cc2c(cc1OC)CC(=O)NC2` [compound 9, quinolinone substrate analog 9], the X-ray crystal structure entry in assay [2] was “A third structure (PDB 6GKY) was determined for CNMT in complex with a quinolinone”.

(Values after publication PMC6099451, “Structure and Biocatalytic Scope of Coclaurine N‐Methyltransferase” (Angewandte Chemie (International Ed. in English), 2018).)
